Laboratory results reported in US20150225369A1, “DDR2 INHIBITORS FOR THE TREATMENT OF OSTEOARTHRITIS” (Merck Patent GmbH, priority 2012, published 2015).

By UniProt entry, the sequences of proteins in these tests, tags left out. Residues count along the entry.
UniProt Q16832, 22-855 limits assumed: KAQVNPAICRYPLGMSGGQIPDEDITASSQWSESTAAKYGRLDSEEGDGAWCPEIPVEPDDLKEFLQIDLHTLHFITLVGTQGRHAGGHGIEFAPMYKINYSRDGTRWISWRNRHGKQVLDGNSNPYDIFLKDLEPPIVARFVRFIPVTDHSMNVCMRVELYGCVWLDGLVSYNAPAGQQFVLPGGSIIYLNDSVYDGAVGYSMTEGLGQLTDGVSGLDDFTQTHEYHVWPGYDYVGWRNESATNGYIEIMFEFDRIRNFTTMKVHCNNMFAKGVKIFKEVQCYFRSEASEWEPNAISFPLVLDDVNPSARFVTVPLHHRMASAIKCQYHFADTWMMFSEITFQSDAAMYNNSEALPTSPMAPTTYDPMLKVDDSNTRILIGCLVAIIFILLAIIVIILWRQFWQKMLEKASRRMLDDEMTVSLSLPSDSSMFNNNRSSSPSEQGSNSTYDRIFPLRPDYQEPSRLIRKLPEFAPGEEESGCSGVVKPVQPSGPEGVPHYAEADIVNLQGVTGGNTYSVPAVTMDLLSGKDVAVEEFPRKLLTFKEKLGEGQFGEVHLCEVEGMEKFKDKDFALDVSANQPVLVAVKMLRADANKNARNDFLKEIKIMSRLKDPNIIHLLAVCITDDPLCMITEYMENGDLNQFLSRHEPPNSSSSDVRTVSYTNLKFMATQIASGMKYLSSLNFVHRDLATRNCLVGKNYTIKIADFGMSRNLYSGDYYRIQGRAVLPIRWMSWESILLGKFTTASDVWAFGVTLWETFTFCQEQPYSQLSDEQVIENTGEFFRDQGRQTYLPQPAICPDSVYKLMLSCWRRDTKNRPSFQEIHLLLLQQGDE

Molecular target: HEK293 transfected with human DDR2 (Homo sapiens, UniProt Q16832)
Test: Phospho-DDR2 cellular assay (collagen II induced DDR2 phosphorylation, ELISA)
Type: cell-based
Settings: read-out: IC50 [p-DDR2]
Method: Assays were performed in a 384 well plate format, using cell line HEK293 transfected with human DDR2 (PLT460F_(DDR2)-P7-1)
Cells were seeded at a density of 10'000 cells/well in 384well poly-D-lysine coated Black/clear plate (Cellcoat Greiner) and incubated in DMEM medium in the presence of 10% fetal bovine serum at 37° C., 5% CO2 for 48 h. Medium was replaced by serum-free medium and cells were incubated at 37° C., 5% CO2 for 8 h. Compound to be tested in 5% DMSO or 5% DMSO and 50 μg/ml of chicken collagen II were added and cells were incubated at 37° C., 5% CO2 for 16 h
Cells were rinsed with ice-cold PBS, lysed with lysis buffer (M-PER Thermo #78501) for 30 min at room temperature and centrifuged for 1 min at 1000 RPM. In parallel, White High binding 384 well plates (Corning) were coated with mouse anti-human DDR2 capture antibody (R&D Systems kit DuoSet IC Human phospho-DDR2 ELISA), overnight at RT.
An aliquot of cell lysate was transferred to the coated plates and incubated for 2 h at RT. Plates were washed and mouse anti-phospho-tyrosine detection antibody (R&D Systems kit DuoSet IC Human phospho-DDR2 ELISA) conjugated to horse radish peroxidase (HRP) was added for 2 h at RT. Plates were washed and chemiluminescent substrate for HRP (Thermo) was added for 15 min at RT. Luminescence was measured on a luminometer.

## CNC(=O)c1cc(Oc2ccc(CNC(=O)Nc3cc(C(C)(C)C)on3)cc2)ccn1
  IC50: 53 nM
